The results in this text go back to ChEMBL document CHEMBL3785084, “Rational modification of the lead molecule: Enhancement in the anticancer and dihydrofolate reductase inhibitory activity” (Bioorg Med Chem Lett, 2016).

The GI50 is the concentration that inhibits growth by half. Lower therefore signals greater sensitivity of the cells. The TGI is the concentration giving total growth inhibition. Low readings indicate more potent growth arrest, high ones less potent growth arrest.

Test [1] deals with NCI-H322M. Particulars: Homo sapiens, 48 h, read-out: Activity.
Test [2] relates to NCI-H322M. Put plainly: cells. Particulars: Homo sapiens, 48 h; for CC50: read-out: LC50.

For the molecule `COc1cc(/C=C2\C(=O)Nc3ccccc32)cc(OC)c1O`, the growth at 10 µM in the test on NCI-H322M [1] worked out at 96%. Besides, in the test with NCI-H322M [2], growth was halved (GI50) at 8.3 µM, net growth stopped (TGI) at 40.7 µM and the CC50 was > 100 µM.

With `CN1C(=O)C(=Cc2cn(CC(O)Cn3cc(C=C4C(=O)N(C)C(=O)N(C)C4=O)c4ccccc43)c3ccccc23)C(=O)N(C)C1=O`, the growth at 10 µM with NCI-H322M [1] was 78%.

Take `CC1=NN(c2cccc(Cl)c2)C(=O)/C1=C\c1cn(CC(O)Cn2cc(/C=C3\C(=O)N(c4cccc(Cl)c4)N=C3C)c3ccccc32)c2ccccc12`: the growth at 10 µM in the test with NCI-H322M [1] worked out at 99.1%.

Consider `O=C1NC(=O)C(=Cc2cn(CC(O)Cn3cc(C=C4C(=O)NC(=O)NC4=O)c4ccccc43)c3ccccc23)C(=O)N1`, for which the growth at 10 µM in the test with NCI-H322M [1] came to 93.5%.

For `O=C1Nc2ccccc2/C1=C/c1cn(CC(O)Cn2cc(/C=C3\C(=O)Nc4ccccc43)c3ccccc32)c2ccccc12` (stereo unspecified), in the test on NCI-H322M [1], the growth at 10 µM is -39.1%. Further, in the test with NCI-H322M [2], it took 1.8 µM to inhibit growth by half (GI50), total growth inhibition (TGI) required 5.6 µM and the CC50 came out at 25.6 µM.
